In this experiment the test system is Calf thymus DNA. As to the kind of experiment: Thermal denaturation of calf thymus DNA at 18 h, incubation at 37 degree C. The format is nucleic-acid assay. The following applies: Bos taurus. The procedure, abridged: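 CT-DNA (100 μM) with ligand 20 μM (PBD/DNA molar ratio 1:5) in aqueous sodium phosphate buffer (10 mM sodium phosphate + 1 mM EDTA, pH 7.00±0.01). Incubated at 37 °C for 0 h or 18 h, then thermal helix→coil melting followed. ΔTm taken relative to DNA alone (Tm mean of 20 separate determinations). ΔTm values ±0.05–0.1 °C.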

By ΔTm is commonly meant the shift of the melting midpoint relative to a reference.

For the compound `COc1cc2c(cc1O)N=C[C@H]1CCCN1C2=O`, the ΔTm amounted to 0.7 °C.

Values taken from ChEMBL document CHEMBL1137859, “Synthesis of C8-linked pyrrolo[2,1-c][1,4]benzodiazepine-benzimidazole conjugates with remarkable DNA-binding affinity” (2004).
